{
  "source": "ChEMBL document CHEMBL1614629",
  "about": "“Extrapolation of human pharmacokinetic parameters from rat, dog, and monkey data: Molecular properties associated with extrapolative success or failure” (J Pharm Sci, 2005)",
  "experiment": "Volume of distribution at steady state in dog after iv administration",
  "type": "ADME, organism-based, Canis lupus familiaris",
  "settings": "in vivo, read-out: Vdss",
  "data": [
    {"smiles": "CN(Cc1cnc2nc(N)nc(N)c2n1)c1ccc(C(=O)N[C@@H](CCC(=O)O)C(=O)O)cc1", "note": "[METHOTREXATE]", "values": [
      {"measurement": "Vd", "result": 0.54, "unit": "L/kg"}
    ]}
  ]
}
